Reference: patent US11124550B2, “Proteinaceous molecules and methods of use” (priority 2015, dated 2021)

Sequences of proteins named here, by UniProt entry; tags and fusion partners are left off.
UniProt Q9Y5Y9, whole entry: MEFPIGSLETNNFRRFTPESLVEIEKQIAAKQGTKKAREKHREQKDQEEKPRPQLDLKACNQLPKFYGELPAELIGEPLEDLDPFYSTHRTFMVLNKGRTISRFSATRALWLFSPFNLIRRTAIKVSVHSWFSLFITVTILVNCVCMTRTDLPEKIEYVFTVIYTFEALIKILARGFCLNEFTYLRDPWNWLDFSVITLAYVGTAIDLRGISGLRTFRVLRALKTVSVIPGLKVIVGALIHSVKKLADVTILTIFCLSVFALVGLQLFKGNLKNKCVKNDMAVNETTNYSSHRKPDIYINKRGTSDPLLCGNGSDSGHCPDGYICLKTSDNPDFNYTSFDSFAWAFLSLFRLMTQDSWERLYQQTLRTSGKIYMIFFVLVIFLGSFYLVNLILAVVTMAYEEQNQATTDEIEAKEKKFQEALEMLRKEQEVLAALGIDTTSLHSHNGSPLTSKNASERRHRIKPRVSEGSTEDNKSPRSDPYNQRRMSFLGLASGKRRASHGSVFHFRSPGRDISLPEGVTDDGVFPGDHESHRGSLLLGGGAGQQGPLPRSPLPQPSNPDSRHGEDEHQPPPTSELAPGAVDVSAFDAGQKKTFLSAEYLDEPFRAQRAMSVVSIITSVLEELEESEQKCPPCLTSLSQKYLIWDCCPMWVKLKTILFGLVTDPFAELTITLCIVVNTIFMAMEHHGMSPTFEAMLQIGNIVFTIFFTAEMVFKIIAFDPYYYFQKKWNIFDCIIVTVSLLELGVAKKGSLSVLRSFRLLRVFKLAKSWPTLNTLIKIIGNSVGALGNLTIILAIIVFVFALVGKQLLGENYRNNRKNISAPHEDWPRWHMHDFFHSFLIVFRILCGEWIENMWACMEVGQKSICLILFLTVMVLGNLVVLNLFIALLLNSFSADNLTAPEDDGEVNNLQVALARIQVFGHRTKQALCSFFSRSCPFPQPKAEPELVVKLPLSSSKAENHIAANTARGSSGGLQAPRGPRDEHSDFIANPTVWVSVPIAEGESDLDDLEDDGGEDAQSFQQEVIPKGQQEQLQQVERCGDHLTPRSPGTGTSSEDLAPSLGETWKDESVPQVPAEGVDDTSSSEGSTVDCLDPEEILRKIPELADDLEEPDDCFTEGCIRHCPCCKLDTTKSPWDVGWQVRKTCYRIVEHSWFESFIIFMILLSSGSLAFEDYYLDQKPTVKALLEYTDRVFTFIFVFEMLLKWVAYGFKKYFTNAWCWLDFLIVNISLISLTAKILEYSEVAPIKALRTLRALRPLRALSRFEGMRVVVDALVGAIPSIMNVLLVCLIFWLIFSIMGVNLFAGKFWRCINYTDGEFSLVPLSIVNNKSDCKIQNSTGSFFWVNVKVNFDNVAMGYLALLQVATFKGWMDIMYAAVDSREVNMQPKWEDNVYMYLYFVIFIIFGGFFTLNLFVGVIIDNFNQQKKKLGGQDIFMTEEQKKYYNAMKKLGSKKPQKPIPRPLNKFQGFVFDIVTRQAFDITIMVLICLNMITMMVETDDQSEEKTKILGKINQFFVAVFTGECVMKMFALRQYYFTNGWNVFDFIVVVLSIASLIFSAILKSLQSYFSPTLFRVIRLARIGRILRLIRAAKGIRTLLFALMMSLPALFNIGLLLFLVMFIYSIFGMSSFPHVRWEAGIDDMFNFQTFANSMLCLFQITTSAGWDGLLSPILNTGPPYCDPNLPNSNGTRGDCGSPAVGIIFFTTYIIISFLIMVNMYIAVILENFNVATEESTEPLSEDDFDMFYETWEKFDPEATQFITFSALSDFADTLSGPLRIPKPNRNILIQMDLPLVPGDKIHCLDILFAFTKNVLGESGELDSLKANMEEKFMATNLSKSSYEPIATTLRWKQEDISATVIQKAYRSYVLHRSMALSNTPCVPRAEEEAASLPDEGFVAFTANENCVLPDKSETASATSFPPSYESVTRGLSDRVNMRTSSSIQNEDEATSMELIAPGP
UniProt Q14524, whole entry: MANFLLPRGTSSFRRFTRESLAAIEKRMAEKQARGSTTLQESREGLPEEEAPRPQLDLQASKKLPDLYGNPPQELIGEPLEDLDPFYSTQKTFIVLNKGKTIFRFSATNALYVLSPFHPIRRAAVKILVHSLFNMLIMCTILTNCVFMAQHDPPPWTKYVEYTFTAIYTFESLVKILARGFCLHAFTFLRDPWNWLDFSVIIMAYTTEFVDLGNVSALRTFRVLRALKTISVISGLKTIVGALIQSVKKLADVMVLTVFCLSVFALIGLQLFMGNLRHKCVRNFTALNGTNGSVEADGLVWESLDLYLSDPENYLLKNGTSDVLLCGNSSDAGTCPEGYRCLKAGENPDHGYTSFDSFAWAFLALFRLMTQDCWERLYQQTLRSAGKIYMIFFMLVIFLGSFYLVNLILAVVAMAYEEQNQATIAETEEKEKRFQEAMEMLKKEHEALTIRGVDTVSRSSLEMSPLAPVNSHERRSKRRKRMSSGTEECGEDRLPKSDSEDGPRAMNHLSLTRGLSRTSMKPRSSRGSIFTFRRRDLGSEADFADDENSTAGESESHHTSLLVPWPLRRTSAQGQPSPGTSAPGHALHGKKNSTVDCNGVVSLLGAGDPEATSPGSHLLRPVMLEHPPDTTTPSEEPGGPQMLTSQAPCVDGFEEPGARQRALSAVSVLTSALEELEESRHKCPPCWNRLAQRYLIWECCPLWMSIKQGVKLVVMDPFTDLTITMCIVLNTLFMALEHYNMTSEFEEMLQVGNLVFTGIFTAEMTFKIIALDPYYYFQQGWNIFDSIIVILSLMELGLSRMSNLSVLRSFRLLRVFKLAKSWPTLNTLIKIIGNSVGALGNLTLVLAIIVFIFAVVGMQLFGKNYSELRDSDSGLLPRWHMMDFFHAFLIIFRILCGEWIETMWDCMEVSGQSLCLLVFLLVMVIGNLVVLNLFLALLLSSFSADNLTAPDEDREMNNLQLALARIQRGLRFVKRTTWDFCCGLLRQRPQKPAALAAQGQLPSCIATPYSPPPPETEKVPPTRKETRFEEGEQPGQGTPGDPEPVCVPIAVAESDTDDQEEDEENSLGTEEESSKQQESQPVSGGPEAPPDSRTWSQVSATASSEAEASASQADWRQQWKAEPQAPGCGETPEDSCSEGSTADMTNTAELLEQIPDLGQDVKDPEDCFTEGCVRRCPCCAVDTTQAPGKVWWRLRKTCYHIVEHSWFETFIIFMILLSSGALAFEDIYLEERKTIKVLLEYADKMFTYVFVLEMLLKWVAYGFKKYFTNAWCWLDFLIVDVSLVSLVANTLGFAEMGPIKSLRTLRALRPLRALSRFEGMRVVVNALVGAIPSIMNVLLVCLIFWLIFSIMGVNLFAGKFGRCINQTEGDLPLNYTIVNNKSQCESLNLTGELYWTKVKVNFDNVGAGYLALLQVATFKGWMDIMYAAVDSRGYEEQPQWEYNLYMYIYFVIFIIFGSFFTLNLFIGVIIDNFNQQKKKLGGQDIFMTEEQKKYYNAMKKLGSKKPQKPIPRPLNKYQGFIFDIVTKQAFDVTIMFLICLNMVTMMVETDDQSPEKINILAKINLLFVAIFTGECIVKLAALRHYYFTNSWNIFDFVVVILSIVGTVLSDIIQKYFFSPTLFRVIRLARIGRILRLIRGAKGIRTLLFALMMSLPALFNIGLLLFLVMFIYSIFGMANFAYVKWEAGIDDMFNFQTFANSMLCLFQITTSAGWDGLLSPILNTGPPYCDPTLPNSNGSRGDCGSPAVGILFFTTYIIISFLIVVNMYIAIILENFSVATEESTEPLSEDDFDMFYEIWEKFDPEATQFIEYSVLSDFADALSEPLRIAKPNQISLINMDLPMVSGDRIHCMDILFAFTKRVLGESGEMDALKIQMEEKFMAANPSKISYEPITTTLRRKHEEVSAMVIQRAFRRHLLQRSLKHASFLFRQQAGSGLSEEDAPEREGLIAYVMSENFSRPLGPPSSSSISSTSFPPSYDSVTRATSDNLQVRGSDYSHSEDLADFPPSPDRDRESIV

Assays:
Assay type in all cases: cell-based
hNav1.8 = target: T1, hNav1.8 (Homo sapiens, UniProt Q9Y5Y9); assay: Automated planar whole-cell patch clamp (Patchliner), hSCN10A HEK293T cells; conditions: concentrations tested up to 50 nM
T1 construct: expressed in transfected cells; host or cells: HEK293T
Text: (§1) To characterize the functional activity of Hm1a and Hm1b, HEK293T cells stably transfected with either hSCN1A, hSCN2A, hSCN3A, hSCN5A, hSCN9A or hSCN10A as well as CHO cells stably transfected with hSCN4A or hSCN8A were used for whole-cell patch-clamp analysis with a high throughput automated planar patch-clamp technology.
(§2) HEK293T cells stably transfected with either hSCN1A, hSCN2A, hSCN3A, hSCN5A, hSCN9A or hSCN10A were maintained in Dulbecco's Modified Eagle's Medium Nutrient Mixture F-12 (Invitrogen, Carlsbad, Calif., USA) supplemented with 10% (v/v) foetal bovine serum (FBS) (Invitrogen), 0.9% Penicillin/Streptomycin (P/S) solution and 100 μg/mL hygromycin or 100 μg/mL neomycin. CHO cells stably transfected with hSCN4A or hSCN8A were maintained in Ham's F12 Nutrient Mixture (Invitrogen, Carlsbad, Calif., USA) supplemented with 10% (v/v) FBS, 0.9% P/S solution and 100 μg/mL hygromycin. All cells were grown in T75 flasks (BD Biosciences, San Jose, Calif., USA) to ˜70% confluency.
(§3) Patch-clamp recordings were conducted in the whole-cell configuration using a Patchliner® (Nanion Technologies, Munich, Germany). […]

hNav1.1 = target: T2, hNav1.1 (Homo sapiens, UniProt P35498); assay: Automated planar whole-cell patch clamp (Patchliner), hSCN1A HEK293T cells; conditions: for Time constant of fast inactivation, K: vehicle 0.08 ± 0.01; for Time constant of fast inactivation, Plateau: vehicle 0.25 ± 0.07; for Time constant of fast inactivation, Span: vehicle 1.0 ± 0.2; for Voltage-dependence of inactivation Slope: vehicle 9.7 ± 0.3; for Voltage-dependence of activation Slope: vehicle 10.0 ± 0.7; for Voltage-dependence of activation V1/2: vehicle −2.6 ± 0.2; for Voltage-dependence of inactivation V1/2: vehicle −28.8 ± 1.4
T2 construct: expressed in transfected cells; host or cells: HEK293T
Text: as §1, §2
Patch-clamp recordings were conducted in the whole-cell configuration using a Patchliner® (Nanion Technologies, Munich, Germany). Before recordings, cells were detached from culture flasks with Accutase Cell Detachment Solution (Innovative Cell Technologies Inc., San Diego, Calif., USA) and resuspended at a density of 1×10^6 to 5×10^7 per milliliter in 50% serum free media and 50% external recording solution v/v. The external recording solution comprised: 140 mM NaCl, 4 mM KCl, 1 mM MgCl2, 2 mM CaCl2), 5 mM D-glucose, 10 mM HEPES (pH adjusted to 7.4 with NaOH). The osmolarity of this solution was 298 mOsm. The internal recording solution comprised: 50 mM CsCl, 10 mM NaCl, 60 mM CsF, 2 mM MgCl2, 20 mM EGTA, 10 mM HEPES (pH adjusted to 7.2 with CsOH) and the osmolarity of this solution was 285 mOsm. Solutions were filtered using a 0.2 jm membrane filter (Minisart; Sartorius Stedim Biotech, Goettingen, Germany). Cells were kept in suspension by gentle automatic pipetting. Test peptide was dissolved in H2O with 0.1% fatty-acid free BSA (fafBSA) (Sigma-Aldrich, Castle Hill, NSW). Medium single-hole planar NPC-16 chips with an average resistance of ˜2.5 MΩ were used. Pipette and whole cell capacitance were fully compensated and the series resistance compensation was set to 50%. Recordings were acquired at 50 kHz with the low pass filter set to 3 kHz in PATCHMASTER (HEKA Instruments Inc., NY, USA) and performed at 27° C. When data needed further filtering for the analysis of sustained current, recordings were additionally filtered at 500 Hz offline using a Gaussian filter algorithm. Offline analysis was performed using Microsoft Excel, MatLab and GraphPad Prism 6 (Molecular Devices). Data are shown as means±S.E.M. Leak subtraction was performed in software before the currents were normalised. Statistical analysis was performed using Student's t-test and differences were considered significant when p<0.05.
The voltage dependence of activation was studied by measuring the normalised peak currents during 100 ms depolarisations from −120 mV to +30 mV in 5 mV increments. The resulting current-voltage curve was fit to the equation I=[I+exp(−0.03937.z.(V−V1/2)]/g.(V−Vr), where I is current amplitude; z is apparent gating charge; V is test potential; V1/2 is half maximal voltage; g is a factor related to the maximum number of open channels; and Vr is reversal potential. Conductance was determined using G=I/(V−Vr), where G is conductance. The conductance values were then fit with the Boltzmann equation G=1/(1+exp[(V−V1/2)/a]), where a is the slope of the half-maximum, V is the potential of the given pulse and V1/2 is the potential for the half-maximal activation. To study steady-state fast inactivation, cells were held at conditioning pre-pulse potentials ranging from −120 mV to +30 mV in 5 mV increments from a holding potential of −120 mV and a test pulse at 0 mV for 20 ms. […]

hNav1.5 = target: T3, hNav1.5 (Homo sapiens, UniProt Q14524); assay: Automated planar whole-cell patch clamp (Patchliner), hSCN5A HEK293T cells; conditions: concentrations tested up to 50 nM
T3 construct: expressed in transfected cells; host or cells: HEK293T
Text: as §1, §2, §3

In the case of `CC(C)C[C@@H]1NC(=O)[C@H](Cc2ccc(O)cc2)NC(=O)[C@H](CCCNC(=N)N)NC(=O)[C@@H](NC(=O)[C@@H](N)CCC(=O)O)CSSC[C@@H]2NC(=O)[C@@H]3CSSC[C@@H](C(=O)N[C@@H](C)C(=O)N[C@@H](Cc4c[nH]c5ccccc45)C(=O)N[C@@H](CC(=O)O)C(=O)NCC(=O)N[C@H](C(=O)N[C@@H](Cc4ccccc4)C(=O)N[C@@H](CO)C(=O)O)[C@@H](C)O)NC(=O)[C@H](Cc4ccc(O)cc4)NC(=O)[C@H](CCCCN)NC(=O)[C@H](Cc4c[nH]c5ccccc45)NC(=O)[C@H](CC(=O)O)NC(=O)[C@H](CO)NC(=O)[C@H](CCCNC(=N)N)NC(=O)[C@H](CSSC[C@H](NC(=O)CNC(=O)CNC(=O)[C@H](Cc4ccccc4)NC1=O)C(=O)N[C@@H](CO)C(=O)N[C@@H](CO)C(=O)N[C@@H]([C@@H](C)O)C(=O)N[C@@H](CO)C(=O)N[C@@H](CC(=O)O)C(=O)N3)NC(=O)[C@H](CO)NC(=O)[C@H](CC(C)C)NC(=O)[C@H](Cc1c[nH]cn1)NC(=O)[C@H](CCCCN)NC2=O` [Hm1a], the “effect on hNav1.8 current” value (hNav1.8) is reported as “no effect”, the “voltage-dependence of fast inactivation of hNav1.1” value (hNav1.1) is reported as “does not alter” and the “voltage-dependence of steady-state activation of hNav1.1” value (hNav1.1) is reported as “hyperpolarizing shift”. For the same molecule, the “Time constant of fast inactivation, K” value (hNav1.1; 1 nM) was 0.11 ± 0.02, the “Time constant of fast inactivation, Plateau” value (“Time constant … Plateau” for short) (hNav1.1; 1 nM) was 0.30 ± 0.02 and the “Time constant of fast inactivation, Span” value (hNav1.1; 1 nM) was 1.2 ± 0.3. The “Voltage-dependence of inactivation Slope” value (hNav1.1; 1 nM) was 9.0 ± 0.2, the “Voltage-dependence of activation Slope” value (hNav1.1; 1 nM) was 10.6 ± 0.9 and the “Voltage-dependence of activation V1/2” value (hNav1.1; 1 nM) was −8.1 ± 0.4 mV. The “Voltage-dependence of inactivation V1/2” value (hNav1.1; 1 nM) was −30.7 ± 1.0 mV, the “time constants of fast inactivation of hNav1.1” value (hNav1.1; 5 nM and 50 nM, potentials more positive than −5 mV) was “significantly increases” and the “Time constant of fast inactivation, K” value (hNav1.1; 5 nM) was 0.07 ± 0.01. For the same molecule, the “Time constant … Plateau” value (hNav1.1; 5 nM) was 0.47 ± 0.03, the “Time constant of fast inactivation, Span” value (hNav1.1; 5 nM) was 0.9 ± 0.4 and the “Voltage-dependence of inactivation Slope” value (hNav1.1; 5 nM) was 9.7 ± 0.4. For the same molecule, the “Voltage-dependence of activation Slope” value (hNav1.1; 5 nM) was 9.4 ± 0.4, the “Voltage-dependence of activation V1/2” value (hNav1.1; 5 nM) was −13.3 ± 0.9 mV and the “Voltage-dependence of inactivation V1/2” value (hNav1.1; 5 nM) was −33.4 ± 1.1 mV. For the same molecule, the “Time constant of fast inactivation, K” value (hNav1.1; 50 nM) was 0.09 ± 0.02, the “Time constant … Plateau” value (hNav1.1; 50 nM) was 0.75 ± 0.1 and the “Time constant of fast inactivation, Span” value (hNav1.1; 50 nM) was 0.8 ± 0.1. The “Voltage-dependence of inactivation Slope” value (hNav1.1; 50 nM) was 11.9 ± 0.8, the “Voltage-dependence of activation Slope” value (hNav1.1; 50 nM) was 11.8 ± 1.3 and the “Voltage-dependence of activation V1/2” value (hNav1.1; 50 nM) was −12.3 ± 1.0 mV. For the same molecule, the “Voltage-dependence of inactivation V1/2” value (hNav1.1; 50 nM) was −29.6 ± 1.2 mV, the hNav1.1 channel inactivation (hNav1.1; 1, 5 or 50 nM) was “potently inhibits hNav1.1 inactivation in a dose-dependent manner” and the “peak current amplitude of hNav1.1” value (hNav1.1; 1, 5 or 50 nM) was “minimal increase”. The hNav1.1 sustained current (hNav1.1; after 24 ms, 5 nM and especially 50 nM, still substantial at end of 100 ms step) was “emergence of a sustained current is apparent” and the “effect on hNav1.5 current” value (hNav1.5) was “no effect”.
